In patent US10870658B2, “Aldose reductase inhibitors and methods of use thereof” (The Trustees of Columbia University in the City of New York, priority 2016, dated 2020) one finds IC50 data, which are given here for one compound.

pIC50: −log10 of the molar value.

The experiment concerns the target Aldose Reductase (Homo sapiens, UniProt P15121). As to the kind of experiment: Aldose reductase enzymatic inhibition (micro plate assay, D-glyceraldehyde and NADPH, absorbance at 340 nm). It is filed as biochemical. Conditions: D-glyceraldehyde and NADPH as substrate; 0.1 nm to 10 uM. The protocol: Aldose Reductase Enzymatic Inhibition:
All compounds and Zopolrestat were tested individually in a micro plate assay for AR inhibition using D-glyceraldehyde and NADPH as substrate and the absorbance changes at 340 nm was monitored. % Inhibition was calculated for ARIs at concentration ranging 0.1 nm to 10 uM.

As to `O=C(O)Cc1nn(Cc2nc3cc(C(F)(F)F)ccc3s2)c(=O)c2cscc12` [Compound XII, 2-(4-oxo-3-((5-(trifluoromethyl)benzo[d]thiazol-2-yl)methyl)-3,4-dihydrothieno[3,4-d]pyridazin-1-yl)acetic acid], the negative-log IC50 (pIC50) (as a rule, −log10 of the IC50, conventionally taken in molar units) was 10.00.
